HCMV UL50-53 inh: cytomegalovirus nuclear egress complex inhibition | 190,000 compounds, 0.15% hits | inhibition, % (no concentration beside the values) | HTRF UL50-UL53 interaction, normalized percent inhibition | AID 1918969; in the data active means inhibition above about 27%, passing the limit was not always enough
GIV-Gai inh: inhibitors of GIV GBA-motif binding to rat Galpha-i3; P08753; Galpha-i3/FITC-GIV peptide fluorescence polarization, 90 min; hits give low values; scaled: aluminum fluoride 0%, vehicle 100%; percent of control (FP), % (no concentration beside the values); 210,000 compounds, 0.42% hits;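 active means replicate mean at 85% of control or lower, very high polarization wells dropped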;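 further: wells of about 15 µL received 100 nL stock; the first replicate is given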
GIV-Gai FP conf: GIV-Galpha-i3 inhibition, FP confirmation. shares compounds with GIV-Gai inh. FITC-GIV peptide binding to Galphai3, fluorescence polarization; active compounds read low. fluorescence polarization, mP at 100 µM. 580 compounds, 38% hits;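 active means inhibition score of 15 or more, meaning 100 minus mean polarization as percent of control over three replicates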;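 further: lower mP means peptide displaced from Galphai3 so more inhibition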
GIV-Gai AS conf: GIV-Galpha-i3 inhibition, AlphaScreen confirmation | shares compounds with GIV-Gai inh | AlphaScreen Galphai3-GIV binding, purified proteins, 90 min; active compounds read low | AlphaScreen counts at 100 µM | 580 compounds, 39% hits | AID 1259351;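 active means inhibition score at or above a set limit, where the score is 100 minus the three-replicate mean percent of control signal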
* marks the source's active call; other numbers are inactive results; . = no result given. Rows were chosen to be rich in hits. Some 0.46% of all compounds tested hit in one or more screens of this group.

SMILES | HCMV UL50-53 inh | GIV-Gai inh | others
Cc1ccc(N2C(=O)NC(=O)/C(=C/c3cc(Br)c(O)cc3O)C2=O)cc1 | -44 | -71*
Cc1ccc(N2C(=O)NC(=O)/C(=C\c3ccc(O)c(Br)c3)C2=O)cc1 | -3 | 110
O=C(OCC1CCCO1)c1ccc2c(c1)N(Cc1ccc(F)cc1Cl)C(=O)c1ccccc1S2(=O)=O (centres undefined) | -6 | 104
COC(=O)c1ccccc1NC(=O)CSc1nnc2[nH]c(=O)c(C)nn12 | . | 99
CC1=C(C(=O)Nc2ccccc2)C(c2ccc([N+](=O)[O-])cc2)n2ncnc2N1 (centres undefined) | -34 | 107
COc1ccc(Nc2nc(SC)nc(-c3ccccc3)c2C#N)cc1OC | -13 | 99
CSc1nc(Nc2cccc(C)c2)c(C#N)c(-c2ccccc2)n1 | 48* | 102
CCCn1cnnc1C1CCCN(C(=O)Cc2ccsc2)C1 (centres undefined) | . | 104
CCCCCCc1cc2cc(-c3nnc(-c4cccc(Cl)c4)o3)c(=O)oc2cc1O | -49 | 7.6*
O=c1oc2ccccc2cc1-c1nnc(-c2cccc(Cl)c2)o1 | 5 | 101
Cc1nc2c3cc(F)ccc3n(CCN3CCOCC3)c2s1 | 28 | 102
CCn1c2ccc(C)cc2c2nc(C)sc21 | 54* | 92
CN1CCN(CC(=O)N2CCCc3ccccc32)CC1 | -16 | 104
CC(=O)c1ccc(N=Cc2c(C)[nH]n(-c3ccc(C)c(C)c3)c2=O)cc1 | . | 111
Cc1ccc(-n2[nH]c(C)c(N=Nc3cccc(-c4cccc(C(=O)O)c4)c3O)c2=O)cc1C | 80* | .
O=C1COc2ccc(S(=O)(=O)N3CCOCC3)cc2N1Cc1noc(C2CCC2)n1 | . | 100
Cc1nc(N2CCCC(C(=O)N3CCCC3)C2)c2c(C)c(C)oc2n1 (centres undefined) | -8 | 102
CCOc1cc(C=C2C(=O)N(C)C(=O)N(C)C2=O)ccc1OCCOc1ccccc1 | 17 | 108
CCOc1cc(C=C2C(=O)N(C)C(=O)N(C)C2=O)ccc1OCCOc1ccc(C)cc1 | 61* | 106
CCC1CCCCN1Cc1c(O)ccc2cc(-c3nc(C)cs3)c(=O)oc12 (centres undefined) | -56 | .
CC1CCCCN1Cc1c(O)ccc2cc(-c3nc4ccccc4s3)c(=O)oc12 (centres undefined) | -61 | -32*
O=C1C(=Cc2cccn2-c2ccc(O)cc2)C(=O)c2ccccc21 | . | 72* | GIV-Gai FP conf=6.1*;GIV-Gai AS conf=19282*
O=C(O)c1cccc(-n2cccc2C=C2C(=O)c3ccccc3C2=O)c1 | . | 107
Cc1ccc2nc(NC3=NC(c4ccccc4)CC(=O)N3)nc(C)c2c1 (centres undefined) | -11 | 103
CCOc1ccc(NC(=O)C2COc3ccccc3O2)cc1 (centres undefined) | -15 | 101

A draw from above in order of count of non-hydrogen atoms, descending.
SMILES | HCMV UL50-53 inh | GIV-Gai inh | others
CC1=C(C(=O)Nc2ccccc2)C(c2ccc([N+](=O)[O-])cc2)n2ncnc2N1 (centres undefined) | -34 | 107
Cc1ccc2nc(NC3=NC(c4ccccc4)CC(=O)N3)nc(C)c2c1 (centres undefined) | -11 | 103
O=c1oc2ccccc2cc1-c1nnc(-c2cccc(Cl)c2)o1 | 5 | 101

Further results
SMILES | HCMV UL50-53 inh | GIV-Gai inh | others
O=C(c1cnc2sc3c(n2c1=O)CCCCC3)N1CCCC1 | 4 | 104
COc1ccc(N2CCN(S(=O)(=O)c3cc(-c4cc(C(F)(F)F)on4)cs3)CC2)cc1 | . | 105
COc1ccc(-c2nc3ccc(C(=O)N4CCN(c5ccccc5)CC4)cc3nc2-c2ccc(OC)c(OC)c2)cc1OC | . | 102
CCOC(=O)N1CCN(C(=O)c2ccc3nc(-c4ccc(OC)c(OC)c4)c(-c4ccc(OC)c(OC)c4)nc3c2)CC1 | . | 84* | GIV-Gai FP conf=65;GIV-Gai AS conf=50289
CCc1nnc(NC(=O)c2sc3nc4ccc(OC)cc4cc3c2N)s1 | -24 | 135
COc1ccccc1CNc1nc2ccccc2nc1S(=O)(=O)c1ccc(C)cc1 | -22 | 114
Cc1ccc(S(=O)(=O)c2nc3ccccc3nc2NCCc2ccccc2)cc1 | -24 | 78* | GIV-Gai FP conf=65;GIV-Gai AS conf=42344
CC1Cc2ccccc2N1C(=O)CC(C#N)(C#N)CC(=O)N1c2ccccc2CC1C (centres undefined) | -17 | .
COc1ccc(CNC(=O)c2c3c(nc4ccccc24)C(=O)N(C2CCCCC2)C3)cc1 | . | 100
COc1cccc(CNC(=O)c2c3c(nc4ccccc24)C(=O)N(C2CCCCC2)C3)c1 | . | 89 | GIV-Gai FP conf=81;GIV-Gai AS conf=34982
CCOCCCNC(=O)C1c2c(n(C)c3ccccc23)SCC(=O)N1c1cccc(OC)c1 (centres undefined) | -5 | 97
CCOc1cc(CNc2ccc(O)cc2)ccc1OCc1ccc(Cl)cc1 | 14 | 76* | GIV-Gai FP conf=61*;GIV-Gai AS conf=10130*
Oc1ccc(NCc2ccccc2OCc2ccc(Cl)cc2)cc1 | 26 | 104
COc1ccc(-c2nc3sc(N(C)CC(=O)NCCN4CCOCC4)nn3c2NC(C)(C)C)cc1 | -16 | 101
CC(C)Nc1ncnc2scc(-c3ccccc3)c12 | -14 | 104
O=C(O)c1cccc(Nc2ncnc3scc(-c4ccccc4)c23)c1 | -11 | 72* | GIV-Gai FP conf=82;GIV-Gai AS conf=29755
O=C1OC(c2ccc(Cl)c([N+](=O)[O-])c2)=N/C1=C\c1cc(Br)cs1 | . | 110
CC(=O)Nc1ccc(C2=N/C(=C/c3cc(Br)cs3)C(=O)O2)cc1 | -13 | 93 | GIV-Gai FP conf=68;GIV-Gai AS conf=42375
CCCC(=O)Nc1ccc2c(c1)nc(CCNC(C)=O)n2C | -1 | 100
CCOC(=O)C(Cc1ccc(O)cc1)NC1=CC(=O)C(=O)c2ccccc21 (centres undefined) | . | 82* | GIV-Gai FP conf=53*;GIV-Gai AS conf=32471
CCOC(=O)C(Cc1ccc(O)cc1)NS(=O)(=O)c1ccc2c(c1)C(=O)c1ccccc1C2=O (centres undefined) | . | 101
O=C(NNc1cc(Cl)ccc1Cl)C(O)(c1ccc(Cl)cc1)c1ccc(Cl)cc1 | . | 99
O=C(O)c1nccnc1C(=O)N1CCCCCC1 | -18 | 107
Cn1c(=O)c(-c2ccccc2)c2c3c(cccc31)C(=O)c1ccccc1-2 | . | 110
Cn1c(=O)c(C(=O)CS(=O)(=O)O)c2c3c(cccc31)C(=O)c1ccccc1-2 | . | 55* | GIV-Gai FP conf=22*;GIV-Gai AS conf=7785*

Reprinted at random: five records from the list.
SMILES | HCMV UL50-53 inh | GIV-Gai inh | others
CCCC(=O)Nc1ccc2c(c1)nc(CCNC(C)=O)n2C | -1 | 100
Cn1c(=O)c(C(=O)CS(=O)(=O)O)c2c3c(cccc31)C(=O)c1ccccc1-2 | . | 55* | GIV-Gai FP conf=22*;GIV-Gai AS conf=7785*
CC1=C(C(=O)Nc2ccccc2)C(c2ccc([N+](=O)[O-])cc2)n2ncnc2N1 (centres undefined) | -34 | 107
CN1CCN(CC(=O)N2CCCc3ccccc32)CC1 | -16 | 104
CCOC(=O)C(Cc1ccc(O)cc1)NS(=O)(=O)c1ccc2c(c1)C(=O)c1ccccc1C2=O (centres undefined) | . | 101

Later entries.
SMILES | HCMV UL50-53 inh | GIV-Gai inh | others
Cc1ccc(S(=O)(=O)N2CCCC(c3nnc(C(=O)Nc4ccc(F)cc4)s3)C2)c(C)c1 (centres undefined) | . | 96
CC(=O)Nc1ccc(Cc2nc(-c3ccc(NS(C)(=O)=O)cc3)no2)cc1 | . | 96
Cc1ccc(C)c(S(=O)(=O)Nc2cc(C(=O)O)cnc2N(C)C)c1 | -35 | 86 | GIV-Gai FP conf=60;GIV-Gai AS conf=26202*
CCCCN(CC)c1ncc(C(=O)O)cc1NS(=O)(=O)c1cc(C)c(C)cc1C | -15 | 101
CCN(Cc1ccccc1)c1ncc(C(=O)O)cc1NS(=O)(=O)c1cc(C)cc(C)c1 | -29 | 138
CCN(CC)c1ncc(C(=O)O)cc1NS(=O)(=O)c1cc(C)cc(C)c1 | -32 | 80* | GIV-Gai FP conf=53;GIV-Gai AS conf=26287*
Cc1ccc2oc(N3CCN(C(=O)c4ccc(-c5noc(C6CC6)n5)cc4)CC3)nc2n1 | -10 | 105
COc1ccc(Nc2c3c4c(cccc4n(C)c2=O)C(=O)c2ccccc2-3)cc1 | . | 103
CCOc1ccc(Nc2c3c4c(cccc4[nH]c2=O)C(=O)c2ccccc2-3)cc1 | -30 | 32* | GIV-Gai FP conf=28*;GIV-Gai AS conf=39358
CN(C)S(=O)(=O)c1cccc(C(=O)OCC(=O)N2CCCCC2)c1 | 9 | .
COc1ccc(/C=C2\N=C(c3ccc(Cl)cc3)N(c3ccccc3)C2=O)cc1OC | . | 81* | GIV-Gai FP conf=81;GIV-Gai AS conf=50234
